{"source": "paper PMC6934973", "about": "(Iranian Journal of Pharmaceutical Research : IJPR, 2019)", "origin": "cited, not measured here", "settings": "result in words; cited from earlier work", "data": [{"compound": "CO[C@]12CC[C@@]3(C[C@@H]1[C@](C)(O)C(C)(C)C)[C@H]1Cc4ccc(O)c5c4[C@@]3(CCN1)[C@H]2O5", "values": [{"measurement": "blood-brain-barrier penetration", "value": "very limited blood-brain-barrier penetration"}]}]}
